Test results: EP1147080B1 (Wyeth Holdings Corporation, priority 1999, dated 2000)

The chains behind the UniProt entries cited, without tags or fusion partners. Residues count along the entry.
UniProt P78536, 215-824: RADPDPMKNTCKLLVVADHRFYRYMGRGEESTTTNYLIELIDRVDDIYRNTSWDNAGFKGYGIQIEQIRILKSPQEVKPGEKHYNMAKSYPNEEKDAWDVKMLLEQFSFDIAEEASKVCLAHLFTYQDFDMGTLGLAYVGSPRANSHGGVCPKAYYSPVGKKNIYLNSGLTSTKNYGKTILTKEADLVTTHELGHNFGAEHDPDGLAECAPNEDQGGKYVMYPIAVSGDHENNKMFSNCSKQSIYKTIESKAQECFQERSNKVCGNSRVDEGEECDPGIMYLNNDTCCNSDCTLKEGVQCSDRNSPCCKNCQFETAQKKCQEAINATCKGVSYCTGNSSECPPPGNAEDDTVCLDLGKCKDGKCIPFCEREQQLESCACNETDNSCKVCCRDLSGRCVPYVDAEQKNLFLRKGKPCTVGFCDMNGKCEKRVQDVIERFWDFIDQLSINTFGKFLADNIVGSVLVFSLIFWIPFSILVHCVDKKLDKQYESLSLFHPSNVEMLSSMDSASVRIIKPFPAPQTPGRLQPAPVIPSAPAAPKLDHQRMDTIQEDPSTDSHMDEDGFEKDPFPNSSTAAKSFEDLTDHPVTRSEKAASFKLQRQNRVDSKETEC

Biological target: TNF-α converting enzyme (TACE) (Homo sapiens, UniProt P78536)
Experiment: Test procedure for measuring TACE inhibition (fluorescent peptidyl substrate)
Assay type: biochemical
Details: second table; IC50 (nM) per footnote a

IC50: 145 nM
SMILES: CC#CCOc1ccc(S(=O)(=O)C(C(=O)NO)c2cccc(Cl)c2)cc1 (stereo not shown) [Example 84, 2-{[4-(2-butynyloxy)phenyl]sulfonyl}-2-(3-chlorophenyl)-N-hydroxyacetamide]
